Earlier results, collected in publication PMC4240550 (PLoS ONE, 2014).

Amino acid sequences for entries named in this document (tags omitted).
UniProt Q9HYN5, entry or part of it: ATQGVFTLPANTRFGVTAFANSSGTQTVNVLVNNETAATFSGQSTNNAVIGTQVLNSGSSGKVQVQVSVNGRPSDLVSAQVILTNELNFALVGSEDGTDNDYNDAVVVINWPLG

Target: LecB (Pseudomonas aeruginosa, UniProt Q9HYN5)
Conditions: ITC; cited from earlier work

For CO[C@H]1O[C@H](CO)[C@@H](O)[C@H](O)[C@@H]1O [compound 2, methyl α-D-mannoside], the ΔG is listed as -5.66 kcal/mol.
